Assay results taken from patent US12036241B2, “Compositions and methods for immune cell modulation in adoptive immunotherapies” (Fate Therapeutics, Inc., priority 2017, dated 2024).

Tests used:
[1] = tested on: K562 tumor cells engineered to express CD19 and luciferase; assay: Two-stage tumor clearance model, secondary tumor re-challenge; format: in vivo, NSG mice; conditions: re-challenge 47 days post primary tumor; FIG. 13D
Method: (§1) To further assess tumor clearance and control by CAR-T cells modulated with a selected compound, a two-stage tumor clearance model was established. […] Secondary tumor burden was measured via bi-weekly caliper measurements and IVIS imaging. IVIS control mice received neither tumor nor CAR-T cells and served as the background luminescence for the IVIS imager.

[2] = tested on: luciferase expressing Nalm6 tumor cells; assay: Two-stage tumor clearance model, primary tumor; format: in vivo, NSG mice; conditions: 3×10^6 CD19 CAR-T; FIG. 13B
Method: as §1

Oc1cccc(-c2nc(N3CCOCC3)c3oc4ncccc4c3n2)c1 [PI103]
control of secondary tumor [1]: perform better
mice that contained and eliminated primary Nalm6 tumor within 1-3 weeks [2]: seven of eight
